{
  "source": "BindingDB's records for doi:10.1021/jm980001q",
  "about": "(G.D. Searle And, 1998)",
  "biological_target": "T1, Glycylpeptide N-tetradecanoyltransferase (Candida albicans (strain SC5314 / ATCC MYA-2876), UniProt P30418)",
  "T1 sequence (P30418 whole entry)": "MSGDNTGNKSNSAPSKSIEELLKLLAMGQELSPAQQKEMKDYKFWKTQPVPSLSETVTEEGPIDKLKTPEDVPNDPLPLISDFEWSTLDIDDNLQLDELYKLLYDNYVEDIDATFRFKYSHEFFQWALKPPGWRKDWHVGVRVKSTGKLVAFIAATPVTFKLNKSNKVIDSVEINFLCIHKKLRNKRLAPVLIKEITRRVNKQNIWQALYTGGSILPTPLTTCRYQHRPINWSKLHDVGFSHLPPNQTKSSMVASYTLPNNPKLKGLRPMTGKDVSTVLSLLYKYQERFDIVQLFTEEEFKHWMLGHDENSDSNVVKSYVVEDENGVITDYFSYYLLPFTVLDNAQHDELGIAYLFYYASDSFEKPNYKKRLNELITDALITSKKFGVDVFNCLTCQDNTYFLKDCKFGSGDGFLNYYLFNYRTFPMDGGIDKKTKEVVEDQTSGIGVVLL",
  "assay": "The Compound was tested for the inhibition potency against Candida albicans N-myristoyltransferase (NMT) and reported as apparent Ki",
  "data": [
    {"smiles": "Cc1nccn1CCCCc1ccc(CC(=O)N[C@@H](CO)C(=O)N[C@@H](CCCCN)C(=O)NCCC2CCCCC2)cc1", "note": "[(S)-6-Amino-2-[(S)-3-hydroxy-2-(2-{4-[4-(2-methyl-imidazol-1-yl)-butyl]-phenyl}-acetylamino)-propionylamino]-hexanoic acid (2-cyclohexyl-ethyl)-amide]", "values": [
      {"measurement": "Ki", "value": 0.031, "unit": "µM"}
    ]}
  ]
}
